Results as given in ChEMBL document CHEMBL1149860, “Synthesis and neuropharmacological characterization of 2-O-substituted apomorphines” (Bioorg Med Chem, 2008).

Protein sequences, listed by entry. Tags and fused reporters are not part of them.
UniProt Q61616, whole entry: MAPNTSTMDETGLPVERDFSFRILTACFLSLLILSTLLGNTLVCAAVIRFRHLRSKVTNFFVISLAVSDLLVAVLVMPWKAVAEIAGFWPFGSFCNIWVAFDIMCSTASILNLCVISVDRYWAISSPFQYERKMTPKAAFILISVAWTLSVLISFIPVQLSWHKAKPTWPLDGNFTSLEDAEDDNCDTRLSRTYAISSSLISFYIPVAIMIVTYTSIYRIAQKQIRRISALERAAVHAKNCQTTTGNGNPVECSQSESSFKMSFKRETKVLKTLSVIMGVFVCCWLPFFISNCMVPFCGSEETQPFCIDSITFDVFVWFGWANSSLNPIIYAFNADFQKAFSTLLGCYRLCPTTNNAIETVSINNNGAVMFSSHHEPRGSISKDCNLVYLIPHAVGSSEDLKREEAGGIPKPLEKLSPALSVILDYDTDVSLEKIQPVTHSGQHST

Biological target: D(1A) dopamine receptor (Mus musculus, UniProt Q61616)
Experiment: Displacement of [3H]SCH23390 from dopamine D1 receptor in mouse Ltk- fibroblast cells
Format: cell-based

- Ki: 101 nM
SMILES: CN1CCc2cccc3c2[C@H]1Cc1ccc(O)c(O)c1-3 [APOMORPHINE]
